Assay results taken from ChEMBL document CHEMBL4665682, “Fragment Linking Strategies for Structure-Based Drug Design” (J Med Chem, 2020).

Amino acid sequences for entries named in this document (tags omitted).
UniProt P10415, whole entry: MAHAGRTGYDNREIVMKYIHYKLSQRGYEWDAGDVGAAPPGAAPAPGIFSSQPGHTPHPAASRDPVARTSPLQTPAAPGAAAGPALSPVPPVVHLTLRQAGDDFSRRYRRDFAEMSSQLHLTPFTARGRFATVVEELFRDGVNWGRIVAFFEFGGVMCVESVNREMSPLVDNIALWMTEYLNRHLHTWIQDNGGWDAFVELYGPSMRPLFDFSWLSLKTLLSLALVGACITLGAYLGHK

Biological target: Apoptosis regulator Bcl-2 (Homo sapiens, UniProt P10415)

pKi: > 9.30
SMILES: CC1(C)CCC(c2ccc(Cl)cc2)=C(CN2CCN(c3ccc(C(=O)NS(=O)(=O)c4ccc(N[C@H](CCN5CCOCC5)CSc5ccccc5)c(S(=O)(=O)C(F)(F)F)c4)cc3)CC2)C1 [NAVITOCLAX]

pKi: −log10 of the molar value.
